Data published in ChEMBL document CHEMBL1135203, “Benzodiazepine inhibitors of the MMPs and TACE” (Bioorg Med Chem Lett, 2002).

The chains behind the UniProt entries cited, without tags or fusion partners. Where a name states a change or a piece, a line headed by the entry shows the natural chain unless it says otherwise.
UniProt P14780: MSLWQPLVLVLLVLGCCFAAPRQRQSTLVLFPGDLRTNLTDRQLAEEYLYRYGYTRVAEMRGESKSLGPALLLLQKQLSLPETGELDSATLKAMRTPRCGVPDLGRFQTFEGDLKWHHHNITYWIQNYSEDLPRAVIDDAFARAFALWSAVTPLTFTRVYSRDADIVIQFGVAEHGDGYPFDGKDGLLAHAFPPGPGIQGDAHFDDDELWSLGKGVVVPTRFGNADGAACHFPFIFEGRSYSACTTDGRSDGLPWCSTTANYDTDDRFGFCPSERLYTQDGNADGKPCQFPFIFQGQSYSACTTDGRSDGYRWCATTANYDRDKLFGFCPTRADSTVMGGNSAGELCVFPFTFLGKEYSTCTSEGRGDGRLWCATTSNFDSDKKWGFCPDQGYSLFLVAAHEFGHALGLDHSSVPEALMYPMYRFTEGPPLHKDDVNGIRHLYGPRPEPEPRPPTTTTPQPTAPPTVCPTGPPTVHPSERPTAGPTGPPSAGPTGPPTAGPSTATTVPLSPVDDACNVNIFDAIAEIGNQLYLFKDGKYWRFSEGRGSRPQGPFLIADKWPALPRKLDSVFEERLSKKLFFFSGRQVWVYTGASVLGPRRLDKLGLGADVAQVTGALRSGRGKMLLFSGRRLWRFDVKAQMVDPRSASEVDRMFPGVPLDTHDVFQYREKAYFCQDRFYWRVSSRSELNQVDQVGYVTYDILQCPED

Target: Matrix metalloproteinase-9 (Homo sapiens, UniProt P14780)
Assay: Concentration required in vitro to inhibit Matrix metalloprotease-9

With `COc1ccc(S(=O)(=O)N2Cc3ccccc3N(C(=O)c3cccs3)CC2C(=O)NO)cc1` (stereo unspecified) as the molecule, how does the IC50 read?
Its IC50 is 1 nM.
